Data reported in patent US20080124407A1, “INHIBITING CYP3A4 INDUCTION” (UNIVERSITY OF WASHINGTON, priority 2006, published 2008).

Biological target: T1, human SXR ligand binding domain (Homo sapiens, UniProt O75469)
T1 sequence (O75469 146-433 limits assumed): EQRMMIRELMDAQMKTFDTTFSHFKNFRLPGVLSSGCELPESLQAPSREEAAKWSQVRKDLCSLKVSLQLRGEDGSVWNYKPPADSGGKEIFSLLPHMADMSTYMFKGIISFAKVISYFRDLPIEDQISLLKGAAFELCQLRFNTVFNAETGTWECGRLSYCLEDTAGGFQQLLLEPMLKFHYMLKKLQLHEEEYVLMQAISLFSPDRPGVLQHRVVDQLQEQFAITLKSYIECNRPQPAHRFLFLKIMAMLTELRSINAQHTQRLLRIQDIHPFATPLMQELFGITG
Assay: Scintillation proximity ligand binding assay, 3H-SR12813 displacement
Conditions: dose dependent

displacement of 3H-SR12813 from the SXR LBD: displaced
Structure (SMILES): Clc1ccccc1C(c1ccccc1)(c1ccccc1)n1ccnc1 [clotrimazole, reference compound]
